This excerpt belongs to a sample that is enriched for hits.
MBNL1 CUG block = inhibitors of human MBNL1 binding to CUG repeat RNA. Q9NR56. TR-FRET MBNL1-His/biotin-(CUG)12 binding, 665/545 ratio. Potency, µM (top dose mostly 57.5 µM), hits mostly inhibitors. 280,000 tested, 0.036% active. AID 2675; active means well fitted inhibition curve with a large enough effect in the signal ratio, with a control signal flat, not every such curve was filed as active; inconclusive means small, poorly fitted or top-dose-only effect, or effect the other way, or a change in a side signal; inactive means no such curve, though single readings can be large or run the other way; the % refers to the signal ratio
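Compound titration spanned 92 nM–58 uM against the MBNL1-His/biotin-(CUG)12 complex. After 60 min at room temperature with 5 nM streptavidin-XL665 and 0.055 ng/ul terbium anti-His, ratiometric 665/545 nm emission (Ex 340 nm) normalized to controls.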
Rango complex inh = prevents formation of the Rango-importin beta complex; Q14974; Rango CFP/YFP FRET sensor + importin beta, 45 min; Potency, µM (highest dose often 92.2 µM); 340,000 tested, 0.031% active; AID 540263; further: nearly all actives have a fitted effect of over 15% in size
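FRET biosensor (snurportin 1 IBB flanked by EYFP and cerulean), 50 nM, with compound 5 min, then 0.125 microM importin beta in PBS, 1 mM DTT, 0.02% Tween-20, 0.1% BSA. CFP/YFP ratio read after 45 min at room temperature; pre-read flags interference.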
CBFb RUNX1 block = blocks binding between human CBF-beta and RUNX1; AID 1477; Potency, µM (top dose mostly 59.8 µM), hits mostly inhibitors; Q01196+Q13951; AlphaScreen CBFb-His/RUNX1-biotin binding, biochemical; 230,000 tested, under 10 active; active means well fitted curve in the direction sought with a large enough effect; inconclusive means small, poorly fitted or top-dose-only effect, or effect the other way, or another doubt; inactive means no such curve, though single readings can be large or run the other way
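Inhibition was taken as any reduction in AlphaScreen signal from the CBF-beta–RUNX1 pair (His and biotin tags, 30 nM each), measured after compound (15 min) and bead (90 min) incubations at room temperature.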
ClpP mod = qHTS Assay for Activators of ClpP; Potency, µM (top dose mostly 57.5 µM); ATP-dependent Clp protease proteolytic subunit (Bacillus subtilis (strain 168)), P80244; 340,000 tested, 1.9% active; purified B. subtilis ClpP, FRET peptide cleavage, 20 min; active means well fitted falling curve with a large enough effect; inconclusive means small, poorly fitted or top-dose-only effect; inactive means no such curve, though single readings can be large or run the other way; further: the source files actives as falling curves though it sought activators and does not explain the sign; nearly all actives have a fitted effect of over 65% in size
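ClpP 10 microg/mL final, pH 8 Tris/KCl buffer with BSA, glycerol, Tween-20; compound pinned in; FRET-FV substrate; RT 20 min; Ex320/Em430; ΔFRET vs ADEP 5.8 microM, DMSO, no enzyme.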
Rango release inh = inhibitors of RanGTP-induced Rango-importin beta complex dissociation; 340,000 tested, 0.071% active; Potency, µM (series often up to 46.1 µM); O95149+P62826; Biochemical FRET Rango-importin beta, RanGTP-induced dissociation; further: nearly all actives have a fitted effect of over 45% in size
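Two FRET readings bracket the reaction: one 5 min after compound meets Rango–importin beta, another 45 min after RanGTP-RCC1 (0.6 uM Ran, 0.2 uM RCC1, 2 mM GTP) is added. Only the second defines inhibition.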
A number is an active result; 0 = inactive; ? = inconclusive; - = no result. Unless noted, the call rests on the fitted dose curve.

Chains of the proteins cited; added tags and fusions are not shown.
ATP-dependent Clp protease proteolytic subunit (Bacillus subtilis (strain 168)), P80244, UniProt P80244, whole entry, looked up: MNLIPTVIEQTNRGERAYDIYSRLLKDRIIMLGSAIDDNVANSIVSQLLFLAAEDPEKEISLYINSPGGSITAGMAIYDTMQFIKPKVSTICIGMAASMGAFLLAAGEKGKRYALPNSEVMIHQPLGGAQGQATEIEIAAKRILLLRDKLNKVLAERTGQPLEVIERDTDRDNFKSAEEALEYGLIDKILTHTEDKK

SMILES	MBNL1 CUG block	Rango complex inh	CBFb RUNX1 block	ClpP mod	Rango release inh
CN(C)CC#CCCCCCCC#CCN(C)C	0	-	0	-	-
C#CCCCCCCC#CCN(C)C	0	0	0	32µM	0
S=C(NCCSCc1ccc(Cl)cc1)Nc1ccccc1	0	0	0	0	0
Cc1cccc(CSCCNC(=S)Nc2ccccc2)c1	0	0	0	25µM	0
COc1ccc(C2C(C(=O)c3ccco3)=C(O)C(=O)N2CCCn2ccnc2)c(OC)c1 (stereo unspecified)	0	0	-	0	0
COc1cc(C2C(C(=O)c3ccc(C)o3)=C(O)C(=O)N2CCCn2ccnc2)cc(OC)c1OC (stereo unspecified)	0	0	-	25µM	0
Cc1cc(=O)n2c3ccccc3n(CC(O)CN3CCCCC3)c2c1C#N (stereo unspecified)	0	0	0	28µM	0
NC(=O)COc1ccccc1C(=O)Nc1ccccc1	-	-	-	0	-
Nc1nnc(-c2cn(-c3ccccc3)nc2-c2ccccc2)o1	0	0	0	25µM	0
CCOC(=O)c1ccccc1NC(=O)CCOc1ccccc1	-	-	-	0	-
COC(=O)c1cc(=O)nc2sc(-c3cccs3)nn12	0	0	0	0	0
COC(=O)c1cc(=O)nc2sc(-c3ccc(F)cc3)nn12	?	0	0	28µM	0
CC(=O)Nc1ccc(Nc2cc(C)nc3c(-c4ccc(Cl)cc4)cnn23)cc1	0	0	0	?	0
CC(=O)Nc1ccc(Nc2cc(C)nc3c(-c4ccc(Cl)cc4)c(C)nn23)cc1	0	0	0	28µM	0
CCOC(=O)c1cc(C#N)c(SC(C(=O)N2CCCCC2)c2ccccc2)nc1C (stereo unspecified)	-	-	-	0	-
CC12CCC(c3nnc(SCc4ccc(Cl)cc4)nc31)C2(C)C (stereo unspecified)	0	0	0	20µM	0
O=C(C[n+]1cccc(I)c1)c1ccc(F)cc1	-	-	-	0	-
CCOC(=O)CSc1nc(C)c2cc(C)c(C)cc2n1	0	0	0	-	0
CCOC(=O)CSc1nc(C)c2cc(OC)ccc2n1	0	0	0	14µM	0
COc1ccc2nc(/N=C(\N)NC(=O)C(C)(C)C)nc(C)c2c1	0	0	0	32µM	0
CCC(=O)N/C(N)=N/c1nc(C)c2cc(OC)ccc2n1	0	0	0	3.2µM	0
CCCc1c(C)nc2ccc(OC)cc2c1SCCC(=O)O	-	0	0	13µM	0
COc1ccc2nc(/N=C(\N)NC(=O)N3c4ccccc4Sc4ccccc43)nc(C)c2c1	0	0	0	?	0
CC[C@@H](C)[C@H](NS(=O)(=O)c1cccc2ccccc12)C(=O)N[C@H](C=O)Cc1c[nH]c2ccccc12	-	-	0	-	-
O=C(NCCn1cc(SCc2ccccc2Cl)c2ccccc21)c1cccs1	-	-	-	0	-
SMILES	MBNL1 CUG block	Rango complex inh	CBFb RUNX1 block	ClpP mod	Rango release inh
COc1ccccc1Nc1nc2ccc(C)cc2cc1C#N	0	?	0	25µM	0
CCC(c1nnnn1CC1CCCO1)N(CCCO)Cc1cc2cccc(C)c2[nH]c1=O (stereo unspecified)	0	0	0	0	0
CCC(c1nnnn1Cc1ccc(F)cc1)N(CCCO)Cc1cc2cc3c(cc2[nH]c1=O)OCO3 (stereo unspecified)	0	0	0	32µM	0
COc1cccc2c1nc(C)c1cc(C)oc12	0	0	0	28µM	0
CCN1/C(=C/c2ccc3cccc(C)c3[n+]2CC)Sc2ccccc21	?	52µM	0	0	0
COC(=O)c1cc(C(=O)OCC(=O)Nc2ccccc2OC(F)F)cc([N+](=O)[O-])c1	?	0	0	28µM	0
CSc1ccc(Cl)c(C(=O)OCC(=O)Nc2ccccc2OC(F)F)c1	0	0	?	28µM	0
CCOc1ccccc1NC(=O)COC(=O)c1cc(C(=O)OC)cc([N+](=O)[O-])c1	-	0	0	0	0
Nc1ccc(C(=O)OCC(=O)Nc2ccc([N+](=O)[O-])cc2C(F)(F)F)cc1	?	0	0	22µM	0
COc1ccc(NC(=O)COC(=O)c2cc(SC)ccc2Cl)c(OC)c1	?	0	0	0	0
CCOc1ccccc1NC(=O)c1nnn(CC(=O)Nc2ccc(OC)c(OC)c2)c1N	-	-	-	0	-
CCOc1ccccc1Nc1cc(C)c2cccc(C)c2n1	0	0	-	-	0
CCOc1nc(N=C(N)N)nc2c(C)cccc12	0	0	0	16µM	0
O=C(NC1CCCC1)c1cccc(Cn2cc([N+](=O)[O-])cn2)c1	0	0	0	16µM	0
COC(=O)c1cccc(Cn2cc([N+](=O)[O-])cn2)c1	0	-	0	-	-
CCCN1C2CCCC1CC(NC(=O)c1cccc(Cl)c1)C2 (stereo unspecified)	0	0	-	0	0
CCCN1C2CCCC1CC(NC(=O)c1cccc([N+](=O)[O-])c1)C2 (stereo unspecified)	?	?	-	28µM	0
CCNC(=O)c1cc2c(=O)n3cccc(C)c3nc2n(Cc2ccc(C)cc2)c1=N	?	?	0	4.5µM	?
N=c1c(C(=O)NCc2ccccc2)cc2c(=O)n3ccccc3nc2n1CCCN1CCOCC1	?	?	0	3.2µM	?
N=c1c(C(=O)NCC2CCCO2)cc2c(=O)n3ccccc3nc2n1Cc1cccnc1 (stereo unspecified)	?	?	0	0	?
C=CCn1c(=N)c(C(=O)NCCCOC)cc2c(=O)n3cc(C)ccc3nc21	?	?	0	0	?
N=c1c(C(=O)NCc2ccc(F)cc2)cc2c(=O)n3ccccc3nc2n1CCCN1CCOCC1	?	?	0	?	?
COC(=O)c1cc2c(=O)n3ccccc3nc2n(Cc2cccnc2)c1=N	-	?	-	6.3µM	?
C=CCn1c(=N)c(C(=O)NCCCOC)cc2c(=O)n3ccccc3nc21	?	?	0	6.3µM	?
Cc1cccn2c(=O)c3cc(C(=O)NC(C)C)c(=N)n(Cc4ccncc4)c3nc12	?	?	0	0	?
SMILES	MBNL1 CUG block	Rango complex inh	CBFb RUNX1 block	ClpP mod	Rango release inh
COc1ccc(NC(=O)c2ccc(-c3nc(CSc4ccccc4)c(C)o3)cc2)c(OC)c1	-	-	-	0	-
Cc1cc(C)c2c(CC(=O)Nc3ccc(F)cc3)coc2c1	-	-	-	0	-
CCCn1c(=N)c(C(=O)NCc2cccnc2)cc2c(=O)n3ccccc3nc21	-	-	-	0	-
N=c1c(C(=O)NCc2ccc(F)cc2)cc2c(=O)n3ccccc3nc2n1Cc1cccnc1	?	?	0	7.1µM	?
CC(C)OCCCn1c(=N)c(C(N)=S)cc2c(=O)n3ccccc3nc21	?	?	0	14µM	?
O=C(c1ccc2c(c1)CCCC2)N1CCN(c2nc3ccc(F)cc3s2)CC1	-	-	-	0	-
CCCSCCCNC(=O)c1ccc2nc(Cc3ccccc3)oc2c1	-	-	-	0	-
COC(=O)c1sccc1-c1ccc(/C=N/OC(=O)c2ccccc2)o1	0	0	0	32µM	0

Screens as filed in PubChem BioAssay.
